In patent publication US9725465B2, “Biaryl acetamide compounds and methods of use thereof” (Ambit Biosciences Corporation, priority 2013, dated 2017):

Tests used:
[1] = tested on: Ba/F3 cells expressing FLT3-ITD
[2] = tested on: Ba/F3 cells expressing FLT3-ITD-D835V

Compound	IC50 [1] [nM]	IC50 [2] [nM]
COc1cc2ncc(-c3ccc(CC(=O)Nc4cc(C5(C(F)(F)F)CC5)n[nH]4)c(F)c3)nc2cc1OC [Example 180, 2-[4-(6,7-dimethoxyquinoxalin-2-yl)-2-fluoro-phenyl]-N-[3-[1-(trifluoromethyl)cyclo-propyl]-1H-pyrazol-5-yl]acetamide]	< 10	< 10
COc1cc2ncc(-c3ccc(CC(=O)Nc4cc(C(C)(C)C(F)(F)F)nn4C)c(F)c3)nc2cc1OC [Example 181, 2-[4-(6,7-dimethoxyquinoxalin-2-yl)-2-fluoro-phenyl]-N-[2-methyl-5-(2,2,2-trifluoro-1,1-dimethyl-ethyl)pyrazol-3-yl]acetamide]	< 10	< 10
COc1cc2ncc(-c3ccc(CC(=O)Nc4cc(C(C)(C)C(F)(F)F)n[nH]4)c(F)c3)nc2cc1OC [Example 182, 2-[4-(6,7-dimethoxyquinoxalin-2-yl)-2-fluoro-phenyl]-N-[3-(2,2,2-trifluoro-1,1-dimethyl-ethyl)-1H-pyrazol-5-yl]acetamide]	< 10	< 10
COc1cc2nc(-c3ccc(CC(=O)Nc4cc(C5(C(F)(F)F)CC5)on4)c(F)c3)cnc2cc1OCC#N [Example 183, 2-[4-[6-(cyanomethoxy)-7-methoxy-quinoxalin-2-yl]-2-fluoro-phenyl]-N-[5-[1-(trifluoromethyl)cyclo-propyl]isoxazol-3-yl]acetamide]	< 10	< 10
COc1cc2ncc(-c3ccc(CC(=O)Nc4cc(C(C)(C)C(F)(F)F)on4)c(F)c3)nc2cc1O [Example 184, 2-[2-fluoro-4-(7-hydroxy-6-methoxy-quinoxalin-2-yl)phenyl]-N-[5-(2,2,2-trifluoro-1,1-dimethyl-ethyl)isoxazol-3-yl]acetamide]	< 10	< 10
COc1cc2nc(-c3ccc(CC(=O)Nc4cc(C5(C(F)(F)F)CC5)on4)c(F)c3)cnc2cc1OCC(=O)N(C)C [Example 186, 2-[4-[6-[2-(dimethylamino)-2-oxo-ethoxy]-7-methoxy-quinoxalin-2-yl]-2-fluoro-phenyl]-N-[5-[1-(trifluoro-methyl)cyclopropyl]isoxazol-3-yl]acetamide]	< 10	< 10
COc1cc2ncc(-c3ccc(CC(=O)Nc4cc(C(C)(C)C(F)(F)F)on4)c(F)c3)nc2cc1OCCN1CCOCC1 [Example 187, 2-[2-fluoro-4-[6-methoxy-7-(2-morpholino-ethoxy)quinoxalin-2-yl]phenyl]-N-[5-(2,2,2-trifluoro-1,1-dimethyl-ethyl)isoxazol-3-yl]acetamide]	< 10	< 10
COCCOc1cc2cc(-c3ccc(CC(=O)Nc4cc(C5(C(F)(F)F)CC5)on4)c(F)c3)cnc2cc1OC [Example 188, 2-[2-fluoro-4-[7-methoxy-6-(2-methoxyethoxy)-3-quinolyl]phenyl]-N-[5-[1-(trifluoromethyl)cyclo-propyl]isoxazol-3-yl]acetamide]	< 10	< 10
COc1cc2ncc(-c3ccc(CC(=O)Nc4cc(C(C)(C)C(F)(F)F)on4)c(F)c3)cc2cc1OCCN1CCOCC1 [Example 189, 2-[2-fluoro-4-[7-methoxy-6-(2-morpholinoethoxy)-3-quinolyl]phenyl]-N-[5-(2,2,2-trifluoro-1,1-dimethyl-ethyl)isoxazol-3-yl]acetamide]	< 10	< 10
COc1cc2ncc(-c3ccc(CC(=O)Nc4cc(C5(C(F)(F)F)CC5)on4)c(F)c3)cc2cc1OCCN1CCOCC1 [Example 190, 2-[2-fluoro-4-[7-methoxy-6-(2-morpholinoethoxy)-3-quinolyl]phenyl]-N-[5-[1-(trifluoromethyl)cyclo-propyl]isoxazol-3-yl]acetamide]	< 10	< 10
COc1cc2ncc(-c3ccc(CC(=O)Nc4cc(C(C)(C)C(F)(F)F)on4)c(F)c3)nc2cc1OCCN1CC[C@H](O)C1 [Example 191, 2-[2-fluoro-4-[7-[2-[(3S)-3-hydroxypyrrolidin-1-yl]ethoxy]-6-methoxy-quinoxalin-2-yl]phenyl]-N-[5-(2,2,2-trifluoro-1,1-dimethyl-ethyl)isoxazol-3-yl]acetamide]	< 10	< 10
COc1cc2ncc(-c3ccc(CC(=O)Nc4cc(C5(C(F)(F)F)CC5)on4)c(F)c3)cc2cc1OCCN [Example 192, 2-[4-[6-(2-aminoethoxy)-7-methoxy-3-quinolyl]-2-fluoro-phenyl]-N-[5-[1-(trifluoromethyl)cyclo-propyl]isoxazol-3-yl]acetamide]	< 10	10 to 20

More lines, now with the values ahead:

IC50 [1] [nM]	IC50 [2] [nM]	Compound
< 10	< 10	COc1cc2ncc(-c3ccc(CC(=O)Nc4cc(C5(C(F)(F)F)CC5)on4)c(F)c3)cc2cc1OCCNC(C)=O [Example 193, 2-[4-[6-(2-acetamidoethoxy)-7-methoxy-3-quinolyl]-2-fluoro-phenyl]-N-[5-[1-(trifluoromethyl)cyclo-propyl]isoxazol-3-yl]acetamide]
< 10	< 10	COc1cc2ncc(-c3ccc(CC(=O)Nc4cc5n(n4)CCC5(C)C)c(F)c3)nc2cc1OC [Example 194, 2-[4-(6,7-dimethoxyquinoxalin-2-yl)-2-fluoro-phenyl]-N-(4,4-dimethyl-5,6-dihydropyrrolo[1,2-b]pyrazol-2-yl)acetamide]
< 10	< 10	COc1cc2nc(-c3ccc(CC(=O)Nc4cc(C5(C(F)(F)F)CC5)on4)c(F)c3)cnc2cc1OCCCO [Example 195, 2-[2-fluoro-4-[6-(3-hydroxypropoxy)-7-methoxy-quinoxalin-2-yl]phenyl]-N-[5-[1-(trifluoromethyl)cyclo-propyl]isoxazol-3-yl]acetamide]
< 10	< 10	CNCCOc1cc2nc(-c3ccc(CC(=O)Nc4cc(C(C)(C)C(F)(F)F)on4)c(F)c3)cnc2cc1OC [Example 196, 2-[2-fluoro-4-[6-methoxy-7-[2-(methyl-amino)ethoxy]quinoxalin-2-yl]phenyl]-N-[5-(2,2,2-trifluoro-1,1-dimethyl-ethyl)isoxazol-3-yl]acetamide]
< 10	< 10	COc1cc2cc(-c3ccc(CC(=O)Nc4cc(C(C)(C)C(F)(F)F)on4)c(F)c3)cnc2cc1OCCN1CCOCC1 [Example 197, 2-[2-fluoro-4-[6-methoxy-7-(2-morpholinoethoxy)-3-quinolyl]phenyl]-N-[5-(2,2,2-trifluoro-1,1-dimethyl-ethyl)isoxazol-3-yl]acetamide]
< 10	< 10	COc1cc2ncc(-c3ccc(CC(=O)Nc4cc(C(C)(C)C(F)(F)F)on4)c(F)c3)nc2cc1OCCN(C)C(C)=O [Example 198, 2-[4-[7-[2-[acetyl(methyl)amino]ethoxy]-6-methoxy-quinoxalin-2-yl]-2-fluoro-phenyl]-N-[5-(2,2,2-trifluoro-1,1-dimethyl-ethyl)isoxazol-3-yl]acetamide]
< 10	< 10	COc1cc2cc(-c3ccc(CC(=O)Nc4cc(C(C)(C)C(F)(F)F)on4)c(F)c3)cnc2cc1OCCN1CC[C@@H](O)C1 [Example 199, 2-[2-fluoro-4-[7-[2-[(3R)-3-hydroxypyrrolidin-1-yl]ethoxy]-6-methoxy-3-quinolyl]phenyl]-N-[5-(2,2,2-trifluoro-1,1-dimethyl-ethyl)isoxazol-3-yl]acetamide]
< 10	< 10	COc1cc2cc(-c3ccc(CC(=O)Nc4cc(C(C)(C)C(F)(F)F)on4)c(F)c3)cnc2cc1OCCN(C)CCO [Example 200, 2-[2-fluoro-4-[7-[2-[2-hydroxy-ethyl(methyl)amino]ethoxy]-6-methoxy-3-quinolyl]phenyl]-N-[5-(2,2,2-trifluoro-1,1-dimethyl-ethyl)isoxazol-3-yl]acetamide]
< 10	< 10	COc1cc2cc(-c3ccc(CC(=O)Nc4cc(C(C)(C)C(F)(F)F)on4)c(F)c3)cnc2cc1OCCNCCO [Example 201, 2-[2-fluoro-4-[7-[2-(2-hydroxyethylamino)ethoxy]-6-methoxy-3-quinolyl]phenyl]-N-[5-(2,2,2-trifluoro-1,1-dimethyl-ethyl)isoxazol-3-yl]acetamide]
< 10	< 10	COc1cc2ncc(-c3ccc(CC(=O)Nc4cc(C5(C(F)(F)F)CC5)on4)c(F)c3)nc2cc1OC[C@@H](C)O [Example 202, 2-[2-fluoro-4-[7-[(2R)-2-hydroxypropoxy]-6-methoxy-quinoxalin-2-yl]phenyl]-N-[5-[1-(trifluoromethyl)cyclo-propyl]isoxazol-3-yl]acetamide]
< 10	< 10	COc1cc2ncc(-c3ccc(CC(=O)Nc4cc(C(C)(C)C(F)(F)F)on4)c(F)c3)nc2cc1OCCCN1CCOCC1 [Example 203, 2-[2-fluoro-4-[6-methoxy-7-(3-morpholino-propoxy)quinoxalin-2-yl]phenyl]-N-[5-(2,2,2-trifluoro-1,1-dimethyl-ethyl)isoxazol-3-yl]acetamide]
< 10	10 to 20	COc1cc2ncc(-c3ccc(CC(=O)Nc4cc(C(C)(C)C(F)(F)F)on4)c(F)c3)cc2cc1OCCN [Example 204, 2-[4-[6-(2-aminoethoxy)-7-methoxy-3-quinolyl]-2-fluoro-phenyl]-N-[5-(2,2,2-trifluoro-1,1-dimethyl-ethyl)isoxazol-3-yl]acetamide]
< 10	< 10	COc1cc2ncc(-c3ccc(CC(=O)Nc4cc(C(C)(C)C(F)(F)F)on4)c(F)c3)cc2cc1OCCNC(C)=O [Example 205, 2-[4-[6-(2-acetamidoethoxy)-7-methoxy-3-quinolyl]-2-fluoro-phenyl]-N-[5-(2,2,2-trifluoro-1,1-dimethyl-ethyl)isoxazol-3-yl]acetamide]
< 10	20 to 50	COc1cc2ncc(-c3ccc(CC(=O)Nc4cc(C(C)(C)C(F)(F)F)on4)c(F)c3)cc2cc1OCCN1CCC(F)(F)CC1 [Example 207, 2-[4-[6-[2-(4,4-difluoro-1-piperidyl)ethoxy]-7-methoxy-3-quinolyl]-2-fluoro-phenyl]-N-[5-(2,2,2-trifluoro-1,1-dimethyl-ethyl)isoxazol-3-yl]acetamide]
